These are literature values, as cited in publication PMC10165945 (Journal of medicinal chemistry, 2013).

Several values for one entry are separate records, joined by “and”; a condition that tells them apart may be missing. Identical values can stand only once.

The test system of this series is neprilysin (NEP), endothelin-converting enzyme-1 (ECE1), ACE, and MMP-2 and -7. The settings on record: previous work; cited from earlier work.

For `N=C(N)NCCC[C@H](NC(=O)[C@@H](CC(=O)NO)Cc1ccc2ccccc2c1)C(=O)N[C@@H](Cc1c[nH]c2ccccc12)C(=O)N[C@@H](CCC(=O)O)C(N)=O` [inhibitor 1a], the “selectivity for IDE vis-à-vis other zinc-metalloproteases” value was > 10^4 fold and ~ 10^4 fold.
